Patent publication US8378100B2, “Phosphonate derivatives as autotaxin inhibitors” (University of Virginia Patent Foundation, priority 2008, dated 2013)

Assays:
[1] = target: Human recombinant autotaxin (ATX) (Homo sapiens, UniProt Q13822); assay: Kinetic study of f17 inhibition of ATX (choline release at various LPC concentrations); type: biochemical; settings: +VPC8a202 (0.5 μM), activity as A555
Procedure: FIG. 2 and FIG. 3 illustrate the kinetics of inhibition of ATX activity with test compound f17 (VPC8a202). The initial rate of recombinant ATX activity was measured calorimetrically at different concentrations of LPC in presence and absence of 0.5 μM VPC8a202. Activity was expressed as the release of choline during 18 hours and it is represented by the absorbance of the product at 555 nm (A555). Each point is the average of three measurements (FIG. 2). Consumed substrate was less than 10% in every case thus ensuring an initial rate of reaction. In FIG. 3, the results were fitted to a straight line by linear regression. The apparent Km for LPC was about 588 μM.
Human recombinant autotaxin (ATX) was subcloned into the mammalian expression vector pcDNA3.1/V5His-TOPO (Invitrogen) and expressed as a C-terminus V5- and 6×His-tagged protein in HEK-293 cells using PolyFect® (Qiagen) as a transfection reagent. […] ATX activity was measured essentially as described by Umezu-Goto M., et al., J Cell Biol, 158: 227-233, 2002, by determining the release of choline after incubation at 37° C. for 18 h in 0.1 ml of a buffer consisting of 100 mM Tris-HCl, pH 9.0, 500 mM NaCl, 5 mM MgCl2, 0.03 mM CoCl2, 0.05% Triton X-100, 0.5 μM of f17 and various concentrations of oleoyl-LPC (lysophosphatidylcholine, Avanti Polar Lipids, Alabaster, Ala.). […]

recombinant human ATX = recombinant human ATX (Homo sapiens, UniProt Q13822); assay: Choline detection assay for ATX
Procedure: The phosphonate derivatives were tested in choline detection assay for ATX inhibition. The ATX activity assay was conducted in 0.1 ml, buffer: (in mM: Tris-HCl 100, pH9, NaCl 150, MgCl2 5, CoSO4 0.03, 0.05% Triton X-100), 1 mM 18:1 LPC, using recombinant human ATX with or without test compounds; incubation was for 16 hours at 37° C. The released choline was detected as follows: Samples were mixed with 0.15 ml of 50 mM TrisHCl containing 2.7 mM TOOS(N-ethyl-N-2-hydroxy-3-sulfopropyl)-m-toluidine, 2.7 mM 4-AAP (4-aminoantipyrine), 47.7 U/ml horseradish peroxidase, 18 U/ml choline oxidase, and 5 mM MgCl2. After 30 min incubation at 37° C., light absorbance (550 nm) was determined, and the amount of choline release was calculated from a standard curve.
The ATX activity was measured in the presence of the test compounds under different concentrations (100 μM, 10 μM and 1 μM). The ATX activity without TEST compounds was used as the standard (100% activity). Some β-hydroxy phosphonate derivatives inhibited ATX activity at only the highest concentration tested. […] These two compounds were synthesized from protected L-tyrosine and they are diastereomers. The less polar isomer, f17, (also known as VPC8a202) was able to inhibit 73% of ATX activity at 1 μM.

CCCCCCCCCCCCCCCC(=O)N[C@@H](Cc1ccc(OCc2ncc(C)c(OC)c2C)cc1)C(O)CP(=O)(O)O (single isomer, unassigned) [f18]
Vmax ([1]; linear regression on the double reciprocal plot): 1.50 | Vmax ([1]; non-linear regression on the direct plot): 1.41 | ATX activity (%) 1 μM (recombinant human ATX; Table 1 (f1-f34), 1 μM test compound, activity without test compound = 100%): 27% | ATX activity (%) 10 Mm (recombinant human ATX; Table 1 (f1-f34), 10 μM test compound as printed, activity without test compound = 100%): 13% | ATX activity (%) 100 μM (recombinant human ATX; Table 1 (f1-f34), 100 μM test compound, activity without test compound = 100%): 6% | inhibition of ATX (in words) (recombinant human ATX; at 1 μM): significant inhibition | inhibition of ATX activity (recombinant human ATX; at 1 μM): 73%
